Experimental data from PubChem BioAssay AID818 (SRMLSC, 2007).
This is a selection; strong and weak results do not stand in their true shares. Some results for these compounds are left out of this collection, so the calls shown say nothing about other tests. The source made the active and inactive calls.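 Rule for the calls: active = viability at or under a set limit, the compound median less 4 SD (cut at about 6% in these data); inactive = the rest.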

Assay: primary screen for growth suppressors in beta-catenin knockout HCT116 cells (colon tumor, human) (AID 818);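 note: 0% = Hyamine 1622 control at 20 µM and 100% = untreated cell control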
Details: CellTiter-Glo, 60 h, at 10 µM, active compounds read low

| Compound | viability |
| --- | --- |
| O=C(OC1CN2CCC1CC2)C(CO)(c1ccccc1)c1ccccc1 (stereo not given) | inactive: 94.9% |
| CN(C)c1cccc(C(=O)NCC2(N(C)C)CCCCC2)c1 | inactive: 80.4% |
| CC(C)N1C(=O)CC2(CCN(CCOC(=O)C(O)(c3ccccc3)c3ccccc3)CC2)C1=O | inactive: 80.1% |
| CN(C)C1CCCC1OC(=O)C(O)(c1ccccc1)c1ccccc1 (stereo not given) | inactive: 90.5% |
| CCN1CCCC(OC(=O)C2(O)c3ccccc3C=Cc3ccccc32)C1 (stereo not given) | inactive: 83.2% |
